Experimental data as given in ChEMBL document CHEMBL2218924, “A broad activity screen in support of a chemogenomic map for kinase signalling research and drug discovery” (Biochem J, 2013).
For some assays here: Shown are results outside the selection of strong results, which stands elsewhere. How the calls were made is not given here. Only a part is listed here, and it is no random draw.

Sequences of proteins named here, by UniProt entry; tags and fusion partners are left off. A change or cut given only in a name is not applied to a line headed by its entry.
UniProt P08069, whole entry, looked up: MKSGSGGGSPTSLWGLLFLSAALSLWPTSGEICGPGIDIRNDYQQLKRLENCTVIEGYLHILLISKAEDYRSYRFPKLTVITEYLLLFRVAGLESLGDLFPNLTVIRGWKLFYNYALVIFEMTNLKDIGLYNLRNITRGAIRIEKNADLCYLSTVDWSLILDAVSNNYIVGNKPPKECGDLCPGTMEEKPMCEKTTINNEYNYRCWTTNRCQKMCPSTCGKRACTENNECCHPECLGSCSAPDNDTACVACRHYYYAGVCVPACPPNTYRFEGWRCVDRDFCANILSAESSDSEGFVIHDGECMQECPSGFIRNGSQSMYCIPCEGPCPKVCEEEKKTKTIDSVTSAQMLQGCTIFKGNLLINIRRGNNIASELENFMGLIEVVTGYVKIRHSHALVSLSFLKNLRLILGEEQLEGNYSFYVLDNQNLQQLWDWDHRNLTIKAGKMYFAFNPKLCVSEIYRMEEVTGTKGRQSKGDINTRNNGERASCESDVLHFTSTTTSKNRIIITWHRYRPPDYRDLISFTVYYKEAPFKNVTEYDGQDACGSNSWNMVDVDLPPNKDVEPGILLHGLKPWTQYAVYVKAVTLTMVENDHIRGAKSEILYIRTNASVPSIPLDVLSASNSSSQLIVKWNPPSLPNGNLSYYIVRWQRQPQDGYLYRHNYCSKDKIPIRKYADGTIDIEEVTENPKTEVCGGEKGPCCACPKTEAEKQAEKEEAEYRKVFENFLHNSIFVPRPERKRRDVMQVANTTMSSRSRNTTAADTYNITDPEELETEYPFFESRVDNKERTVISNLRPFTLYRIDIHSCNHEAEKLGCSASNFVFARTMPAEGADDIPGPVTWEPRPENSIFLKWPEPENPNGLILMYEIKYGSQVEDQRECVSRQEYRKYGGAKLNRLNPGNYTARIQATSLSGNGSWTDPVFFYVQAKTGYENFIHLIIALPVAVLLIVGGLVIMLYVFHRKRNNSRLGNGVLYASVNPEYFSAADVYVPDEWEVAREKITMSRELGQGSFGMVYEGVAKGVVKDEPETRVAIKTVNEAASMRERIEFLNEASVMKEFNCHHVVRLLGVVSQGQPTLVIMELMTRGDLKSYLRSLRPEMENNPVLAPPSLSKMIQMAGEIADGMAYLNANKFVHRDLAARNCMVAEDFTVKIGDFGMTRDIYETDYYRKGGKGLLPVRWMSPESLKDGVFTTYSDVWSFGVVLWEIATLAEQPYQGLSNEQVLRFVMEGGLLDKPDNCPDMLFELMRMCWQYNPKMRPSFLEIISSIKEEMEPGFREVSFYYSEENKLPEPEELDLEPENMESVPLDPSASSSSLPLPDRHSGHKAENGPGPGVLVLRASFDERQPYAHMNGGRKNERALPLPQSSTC
UniProt P42685: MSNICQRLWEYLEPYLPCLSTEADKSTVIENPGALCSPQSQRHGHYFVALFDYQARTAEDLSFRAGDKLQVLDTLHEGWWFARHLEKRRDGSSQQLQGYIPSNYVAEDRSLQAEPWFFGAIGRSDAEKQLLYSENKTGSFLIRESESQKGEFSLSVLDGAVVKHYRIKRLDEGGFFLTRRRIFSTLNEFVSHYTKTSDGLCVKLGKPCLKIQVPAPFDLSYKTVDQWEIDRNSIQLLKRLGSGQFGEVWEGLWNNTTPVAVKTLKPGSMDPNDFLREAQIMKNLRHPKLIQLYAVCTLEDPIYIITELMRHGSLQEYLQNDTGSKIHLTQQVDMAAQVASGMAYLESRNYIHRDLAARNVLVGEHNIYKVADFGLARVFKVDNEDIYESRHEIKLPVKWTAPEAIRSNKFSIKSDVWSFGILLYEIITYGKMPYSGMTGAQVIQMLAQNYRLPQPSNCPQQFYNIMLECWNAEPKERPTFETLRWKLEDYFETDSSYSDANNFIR
UniProt Q9H4B4: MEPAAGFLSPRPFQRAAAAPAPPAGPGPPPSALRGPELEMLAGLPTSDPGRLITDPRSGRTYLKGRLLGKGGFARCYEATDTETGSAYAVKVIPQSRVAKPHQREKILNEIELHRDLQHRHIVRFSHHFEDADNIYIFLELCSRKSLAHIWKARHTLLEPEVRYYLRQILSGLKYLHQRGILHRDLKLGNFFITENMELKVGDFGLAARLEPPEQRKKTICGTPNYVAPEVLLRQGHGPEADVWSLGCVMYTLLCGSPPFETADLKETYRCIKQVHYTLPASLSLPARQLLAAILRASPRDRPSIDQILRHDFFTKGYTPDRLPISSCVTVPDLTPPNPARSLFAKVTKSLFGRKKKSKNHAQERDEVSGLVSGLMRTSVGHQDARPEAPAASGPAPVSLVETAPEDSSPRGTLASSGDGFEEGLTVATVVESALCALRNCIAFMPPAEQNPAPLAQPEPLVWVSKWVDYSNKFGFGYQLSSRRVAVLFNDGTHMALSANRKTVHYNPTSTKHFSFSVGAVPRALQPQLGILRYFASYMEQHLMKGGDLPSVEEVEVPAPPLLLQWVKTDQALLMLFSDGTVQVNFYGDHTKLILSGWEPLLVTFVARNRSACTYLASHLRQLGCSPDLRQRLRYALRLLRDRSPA
UniProt O75116: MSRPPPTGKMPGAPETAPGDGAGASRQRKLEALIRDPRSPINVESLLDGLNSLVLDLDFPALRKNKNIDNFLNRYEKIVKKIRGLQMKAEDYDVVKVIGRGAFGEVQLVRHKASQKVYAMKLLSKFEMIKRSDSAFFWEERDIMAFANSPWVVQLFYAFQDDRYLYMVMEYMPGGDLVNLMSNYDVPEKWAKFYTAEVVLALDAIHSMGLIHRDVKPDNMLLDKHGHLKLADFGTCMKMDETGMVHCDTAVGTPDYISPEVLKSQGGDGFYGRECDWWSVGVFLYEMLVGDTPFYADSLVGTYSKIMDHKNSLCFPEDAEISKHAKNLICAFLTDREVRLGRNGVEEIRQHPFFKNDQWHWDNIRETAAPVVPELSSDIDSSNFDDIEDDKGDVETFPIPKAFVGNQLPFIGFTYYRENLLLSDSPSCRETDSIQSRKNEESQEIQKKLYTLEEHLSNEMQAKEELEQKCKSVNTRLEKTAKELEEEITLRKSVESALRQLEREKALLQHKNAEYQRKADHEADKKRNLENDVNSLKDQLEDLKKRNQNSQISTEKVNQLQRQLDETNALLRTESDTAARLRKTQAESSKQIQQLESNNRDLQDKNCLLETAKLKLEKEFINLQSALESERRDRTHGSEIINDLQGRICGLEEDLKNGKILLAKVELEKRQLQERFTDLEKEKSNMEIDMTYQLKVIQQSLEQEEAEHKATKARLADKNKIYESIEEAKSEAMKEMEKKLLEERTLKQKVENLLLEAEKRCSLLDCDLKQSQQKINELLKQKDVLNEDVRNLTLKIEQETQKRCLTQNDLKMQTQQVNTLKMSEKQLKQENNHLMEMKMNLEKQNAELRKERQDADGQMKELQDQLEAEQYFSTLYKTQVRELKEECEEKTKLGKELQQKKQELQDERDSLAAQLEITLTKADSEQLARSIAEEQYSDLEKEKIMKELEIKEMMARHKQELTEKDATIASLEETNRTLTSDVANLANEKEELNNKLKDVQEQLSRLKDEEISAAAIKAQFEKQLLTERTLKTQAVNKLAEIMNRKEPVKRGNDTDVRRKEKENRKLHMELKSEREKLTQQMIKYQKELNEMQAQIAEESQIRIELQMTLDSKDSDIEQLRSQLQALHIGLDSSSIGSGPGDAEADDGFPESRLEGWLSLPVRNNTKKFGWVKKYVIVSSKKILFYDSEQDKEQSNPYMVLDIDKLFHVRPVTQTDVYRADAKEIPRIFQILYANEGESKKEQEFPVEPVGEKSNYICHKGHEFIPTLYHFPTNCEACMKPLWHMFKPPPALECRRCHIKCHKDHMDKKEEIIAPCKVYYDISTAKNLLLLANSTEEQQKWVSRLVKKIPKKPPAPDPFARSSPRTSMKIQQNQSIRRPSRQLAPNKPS

How the values were obtained:
[1] = target: Insulin-like growth factor 1 receptor (Homo sapiens) (UniProt P08069); conditions: at 10 µM
[2] = target: T1, Protein kinase C iota type (Homo sapiens) (UniProt P41743); conditions: at 1 µM
T1 sequence (whole entry): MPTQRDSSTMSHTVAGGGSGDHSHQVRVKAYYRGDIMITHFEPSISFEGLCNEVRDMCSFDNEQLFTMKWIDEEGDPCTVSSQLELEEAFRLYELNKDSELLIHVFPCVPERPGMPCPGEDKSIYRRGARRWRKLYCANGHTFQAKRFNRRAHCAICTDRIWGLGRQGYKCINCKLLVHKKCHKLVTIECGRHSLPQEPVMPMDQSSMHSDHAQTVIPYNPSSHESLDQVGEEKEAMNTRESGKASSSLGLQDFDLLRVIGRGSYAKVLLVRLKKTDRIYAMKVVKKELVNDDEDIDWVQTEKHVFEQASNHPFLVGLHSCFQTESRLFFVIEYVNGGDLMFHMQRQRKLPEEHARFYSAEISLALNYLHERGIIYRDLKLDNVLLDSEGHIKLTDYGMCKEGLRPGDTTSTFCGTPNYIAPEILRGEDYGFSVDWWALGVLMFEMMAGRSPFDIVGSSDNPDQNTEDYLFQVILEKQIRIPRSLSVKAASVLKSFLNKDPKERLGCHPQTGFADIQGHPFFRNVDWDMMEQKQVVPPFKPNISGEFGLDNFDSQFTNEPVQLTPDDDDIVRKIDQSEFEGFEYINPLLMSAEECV

[3] = target: T1, Protein kinase C iota type (Homo sapiens); conditions: at 10 µM
[4] = target: T2, Serine/threonine-protein kinase D1 (Homo sapiens) (UniProt Q15139); conditions: at 1 µM
T2 sequence (whole entry): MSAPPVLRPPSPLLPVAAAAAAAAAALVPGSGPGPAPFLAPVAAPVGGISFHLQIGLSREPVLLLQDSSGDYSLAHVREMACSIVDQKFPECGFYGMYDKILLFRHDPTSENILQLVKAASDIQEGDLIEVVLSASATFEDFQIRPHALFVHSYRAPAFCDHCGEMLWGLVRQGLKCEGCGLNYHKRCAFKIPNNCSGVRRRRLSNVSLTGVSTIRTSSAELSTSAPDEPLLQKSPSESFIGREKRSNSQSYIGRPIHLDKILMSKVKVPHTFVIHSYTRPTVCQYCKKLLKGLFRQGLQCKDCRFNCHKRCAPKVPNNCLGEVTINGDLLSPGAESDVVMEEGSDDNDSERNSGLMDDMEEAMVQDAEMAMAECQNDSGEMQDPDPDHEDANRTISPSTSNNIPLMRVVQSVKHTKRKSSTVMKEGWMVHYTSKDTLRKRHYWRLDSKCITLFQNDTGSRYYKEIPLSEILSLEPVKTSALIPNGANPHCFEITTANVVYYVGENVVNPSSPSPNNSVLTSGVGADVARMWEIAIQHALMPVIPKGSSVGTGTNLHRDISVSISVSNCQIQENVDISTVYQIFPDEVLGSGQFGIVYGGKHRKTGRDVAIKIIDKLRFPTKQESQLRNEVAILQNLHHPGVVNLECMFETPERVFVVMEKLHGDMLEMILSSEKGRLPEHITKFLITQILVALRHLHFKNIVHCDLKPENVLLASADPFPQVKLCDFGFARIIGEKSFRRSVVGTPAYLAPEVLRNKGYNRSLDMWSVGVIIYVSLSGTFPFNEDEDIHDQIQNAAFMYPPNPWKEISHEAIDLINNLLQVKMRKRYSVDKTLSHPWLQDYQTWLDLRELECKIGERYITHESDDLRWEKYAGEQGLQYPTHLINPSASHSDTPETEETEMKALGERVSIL

[5] = target: T3, Serine/threonine-protein kinase D2 (Homo sapiens) (UniProt Q9BZL6); conditions: at 1 µM
T3 sequence (whole entry): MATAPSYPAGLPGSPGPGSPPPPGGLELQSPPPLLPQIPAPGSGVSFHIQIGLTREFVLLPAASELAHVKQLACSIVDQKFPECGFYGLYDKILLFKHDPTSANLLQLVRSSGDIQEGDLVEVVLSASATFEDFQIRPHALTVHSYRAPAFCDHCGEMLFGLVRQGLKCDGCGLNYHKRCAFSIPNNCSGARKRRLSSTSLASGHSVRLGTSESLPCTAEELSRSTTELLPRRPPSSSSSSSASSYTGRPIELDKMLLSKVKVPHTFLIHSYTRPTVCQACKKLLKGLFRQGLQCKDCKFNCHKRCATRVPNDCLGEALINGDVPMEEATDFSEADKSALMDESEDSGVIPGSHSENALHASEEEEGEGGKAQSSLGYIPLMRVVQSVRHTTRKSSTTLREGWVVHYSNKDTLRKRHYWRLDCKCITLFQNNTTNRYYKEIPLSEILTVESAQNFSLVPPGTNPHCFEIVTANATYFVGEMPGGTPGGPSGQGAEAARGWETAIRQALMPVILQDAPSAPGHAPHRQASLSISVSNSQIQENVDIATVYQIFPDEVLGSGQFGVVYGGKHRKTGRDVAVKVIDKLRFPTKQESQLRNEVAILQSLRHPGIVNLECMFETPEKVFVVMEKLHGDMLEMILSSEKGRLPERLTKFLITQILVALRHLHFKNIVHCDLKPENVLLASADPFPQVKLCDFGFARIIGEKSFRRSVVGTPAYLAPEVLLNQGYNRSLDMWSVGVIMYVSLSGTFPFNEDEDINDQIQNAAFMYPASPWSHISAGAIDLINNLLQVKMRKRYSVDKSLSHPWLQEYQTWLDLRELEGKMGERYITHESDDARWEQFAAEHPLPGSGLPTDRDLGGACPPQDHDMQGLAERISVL

[6] = target: T3, Serine/threonine-protein kinase D2 (Homo sapiens); conditions: at 10 µM
[7] = target: T4, MAP kinase-activated protein kinase 5 (Homo sapiens) (UniProt Q8IW41); conditions: at 1 µM
T4 sequence (whole entry): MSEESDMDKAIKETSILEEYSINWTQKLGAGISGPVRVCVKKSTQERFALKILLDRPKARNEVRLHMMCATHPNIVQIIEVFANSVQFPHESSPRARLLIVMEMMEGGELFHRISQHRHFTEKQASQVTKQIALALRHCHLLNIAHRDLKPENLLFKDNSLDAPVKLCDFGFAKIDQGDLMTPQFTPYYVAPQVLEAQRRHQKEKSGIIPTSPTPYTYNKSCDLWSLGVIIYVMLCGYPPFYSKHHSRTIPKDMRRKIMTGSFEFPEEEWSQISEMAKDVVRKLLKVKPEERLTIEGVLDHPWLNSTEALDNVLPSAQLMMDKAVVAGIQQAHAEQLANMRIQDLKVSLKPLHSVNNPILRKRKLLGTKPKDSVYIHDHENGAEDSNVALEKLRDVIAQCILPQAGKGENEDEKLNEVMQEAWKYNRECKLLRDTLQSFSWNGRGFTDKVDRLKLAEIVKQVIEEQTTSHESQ

[8] = target: Tyrosine-protein kinase FRK (Homo sapiens) (UniProt P42685); conditions: at 10 µM
[9] = target: T5, Phosphorylase b kinase gamma catalytic chain, liver/testis isoform (Homo sapiens) (UniProt P15735); conditions: at 10 µM
T5 sequence (whole entry): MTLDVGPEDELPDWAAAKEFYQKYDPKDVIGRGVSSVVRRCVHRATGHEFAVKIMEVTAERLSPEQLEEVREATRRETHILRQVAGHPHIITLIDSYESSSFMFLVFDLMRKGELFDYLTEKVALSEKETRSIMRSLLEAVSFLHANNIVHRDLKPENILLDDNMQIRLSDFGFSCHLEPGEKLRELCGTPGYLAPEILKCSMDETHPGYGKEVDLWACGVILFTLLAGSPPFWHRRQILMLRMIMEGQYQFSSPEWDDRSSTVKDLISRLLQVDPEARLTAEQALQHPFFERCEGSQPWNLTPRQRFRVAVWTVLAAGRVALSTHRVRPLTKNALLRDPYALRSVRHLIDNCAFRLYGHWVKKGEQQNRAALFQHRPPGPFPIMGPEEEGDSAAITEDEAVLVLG

[10] = target: Serine/threonine-protein kinase pim-3 (Homo sapiens) (UniProt Q86V86); conditions: at 1 µM
[11] = target: Serine/threonine-protein kinase PLK3 (Homo sapiens) (UniProt Q9H4B4); conditions: at 1 µM
[12] = target: Serine/threonine-protein kinase PLK3 (Homo sapiens) (UniProt Q9H4B4); conditions: at 10 µM
[13] = target: Rho-associated protein kinase 2 (Homo sapiens) (UniProt O75116); conditions: at 1 µM
[14] = target: T6, Macrophage-stimulating protein receptor (Homo sapiens) (UniProt Q04912); conditions: at 1 µM
T6 sequence (whole entry): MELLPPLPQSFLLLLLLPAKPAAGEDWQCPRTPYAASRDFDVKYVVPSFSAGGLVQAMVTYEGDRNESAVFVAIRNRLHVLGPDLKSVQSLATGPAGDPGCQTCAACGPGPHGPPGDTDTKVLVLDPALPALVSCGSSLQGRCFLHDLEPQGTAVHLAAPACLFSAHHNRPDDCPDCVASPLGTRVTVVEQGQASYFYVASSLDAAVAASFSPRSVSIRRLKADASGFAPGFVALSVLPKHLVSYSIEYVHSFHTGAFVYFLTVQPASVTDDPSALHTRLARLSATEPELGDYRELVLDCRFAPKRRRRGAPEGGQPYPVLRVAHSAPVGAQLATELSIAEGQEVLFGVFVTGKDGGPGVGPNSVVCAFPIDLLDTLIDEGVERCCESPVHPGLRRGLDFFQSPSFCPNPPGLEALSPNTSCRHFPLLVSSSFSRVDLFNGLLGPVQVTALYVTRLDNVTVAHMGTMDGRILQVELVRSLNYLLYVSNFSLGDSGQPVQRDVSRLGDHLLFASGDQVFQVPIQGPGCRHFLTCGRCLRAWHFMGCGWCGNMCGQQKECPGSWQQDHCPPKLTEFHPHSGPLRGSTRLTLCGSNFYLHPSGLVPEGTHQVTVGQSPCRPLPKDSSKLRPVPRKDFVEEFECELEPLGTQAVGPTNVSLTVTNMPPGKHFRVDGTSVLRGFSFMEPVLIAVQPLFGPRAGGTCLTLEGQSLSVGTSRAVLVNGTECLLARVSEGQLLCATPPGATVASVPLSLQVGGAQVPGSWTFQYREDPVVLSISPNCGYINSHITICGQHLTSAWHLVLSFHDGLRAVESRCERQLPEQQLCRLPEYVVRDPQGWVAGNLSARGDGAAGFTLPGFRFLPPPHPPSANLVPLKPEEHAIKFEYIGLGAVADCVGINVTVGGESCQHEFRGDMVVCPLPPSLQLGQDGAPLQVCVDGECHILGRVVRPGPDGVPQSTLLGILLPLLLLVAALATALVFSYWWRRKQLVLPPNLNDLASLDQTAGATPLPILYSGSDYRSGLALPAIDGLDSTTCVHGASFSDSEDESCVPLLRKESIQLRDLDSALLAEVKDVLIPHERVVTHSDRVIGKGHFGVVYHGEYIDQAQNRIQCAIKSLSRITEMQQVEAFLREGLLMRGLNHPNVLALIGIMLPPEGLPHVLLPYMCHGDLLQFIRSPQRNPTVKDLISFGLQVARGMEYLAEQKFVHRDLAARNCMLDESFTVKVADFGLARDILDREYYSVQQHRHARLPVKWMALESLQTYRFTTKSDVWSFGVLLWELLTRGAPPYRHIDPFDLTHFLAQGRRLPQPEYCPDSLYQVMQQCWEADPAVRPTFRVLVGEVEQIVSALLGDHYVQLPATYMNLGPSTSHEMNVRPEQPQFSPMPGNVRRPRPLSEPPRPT

**Q.** What does the source list for `O=C1NC(=O)C(c2cn(CCCn3ccnc3)c3ccccc23)=C1Nc1ccccc1`?
**A.** residual activity [1]: 88%; residual activity [2]: inactive: 86%; residual activity [3]: 87%; residual activity [4]: 91%; residual activity [5]: 102%; residual activity [6]: 96%; residual activity [7]: 83%; residual activity [8]: 91%; residual activity [9]: 93%; residual activity [10]: 89%; residual activity [11]: inactive: 84%; residual activity [12]: 96%; residual activity [13]: 99%; residual activity [14]: 89%
